Data reported in ChEMBL document CHEMBL4725474, “Discovery of a Selective, Covalent IRAK1 Inhibitor with Antiproliferative Activity in MYD88 Mutated B-Cell Lymphoma” (ACS Med Chem Lett, 2020).

Legend:
[1] = test system: BCWM1; details: Homo sapiens, dose 20.0 µM, time 72.0 hrs
[2] = test system: BCWM1; details: Homo sapiens, dose 6.325 µM, time 72.0 hrs
[3] = test system: BCWM1; details: Homo sapiens, dose 2.0 µM, time 72.0 hrs
[4] = test system: BCWM1; details: Homo sapiens, dose 0.632 µM, time 72.0 hrs
[5] = test system: BCWM1; details: Homo sapiens, dose 0.2 µM, time 72.0 hrs
[6] = test system: BCWM1; details: Homo sapiens, dose 20.0 µM, time 72.0 hrs; remark: listed apart in the source
[7] = test system: BCWM1; details: Homo sapiens, dose 6.325 µM, time 72.0 hrs; remark: listed apart in the source
[8] = test system: BCWM1; details: Homo sapiens, dose 2.0 µM, time 72.0 hrs; remark: listed apart in the source
[9] = test system: BCWM1; details: Homo sapiens, dose 0.632 µM, time 72.0 hrs; remark: listed apart in the source
[10] = test system: BCWM1; details: Homo sapiens, dose 0.2 µM, time 72.0 hrs; remark: listed apart in the source
[11] = test system: BCWM1; details: Homo sapiens, dose 20.0 µM, time 72.0 hrs; remark: listed apart in the source
[12] = test system: BCWM1; details: Homo sapiens, dose 6.325 µM, time 72.0 hrs; remark: listed apart in the source
[13] = test system: BCWM1; details: Homo sapiens, dose 2.0 µM, time 72.0 hrs; remark: listed apart in the source
[14] = test system: BCWM1; details: Homo sapiens, dose 0.632 µM, time 72.0 hrs; remark: listed apart in the source
[15] = test system: BCWM1; details: Homo sapiens, dose 0.2 µM, time 72.0 hrs; remark: listed apart in the source
[16] = test system: BCWM1; details: Homo sapiens, dose 20.0 µM, time 72.0 hrs; remark: listed apart in the source
[17] = test system: BCWM1; details: Homo sapiens, dose 6.325 µM, time 72.0 hrs; remark: listed apart in the source
[18] = test system: BCWM1; details: Homo sapiens, dose 2.0 µM, time 72.0 hrs; remark: listed apart in the source
[19] = test system: BCWM1; details: Homo sapiens, dose 0.632 µM, time 72.0 hrs; remark: listed apart in the source
[20] = test system: BCWM1; details: Homo sapiens, dose 0.2 µM, time 72.0 hrs; remark: listed apart in the source
[21] = test system: BCWM1; details: Homo sapiens, dose 20.0 µM, time 72.0 hrs; remark: listed apart in the source
[22] = test system: BCWM1; details: Homo sapiens, dose 6.325 µM, time 72.0 hrs; remark: listed apart in the source
[23] = test system: BCWM1; details: Homo sapiens, dose 2.0 µM, time 72.0 hrs; remark: listed apart in the source
[24] = test system: BCWM1; details: Homo sapiens, dose 0.632 µM, time 72.0 hrs; remark: listed apart in the source
[25] = test system: BCWM1; details: Homo sapiens, dose 0.2 µM, time 72.0 hrs; remark: listed apart in the source
[26] = test system: TMD8; details: Homo sapiens, dose 20.0 µM, time 72.0 hrs
[27] = test system: TMD8; details: Homo sapiens, dose 6.325 µM, time 72.0 hrs
[28] = test system: TMD8; details: Homo sapiens, dose 2.0 µM, time 72.0 hrs
[29] = test system: TMD8; details: Homo sapiens, dose 0.632 µM, time 72.0 hrs
[30] = test system: TMD8; details: Homo sapiens, dose 0.2 µM, time 72.0 hrs
[31] = test system: TMD8; details: Homo sapiens, dose 20.0 µM, time 72.0 hrs; remark: listed apart in the source
[32] = test system: TMD8; details: Homo sapiens, dose 6.325 µM, time 72.0 hrs; remark: listed apart in the source
[33] = test system: TMD8; details: Homo sapiens, dose 2.0 µM, time 72.0 hrs; remark: listed apart in the source
[34] = test system: TMD8; details: Homo sapiens, dose 0.632 µM, time 72.0 hrs; remark: listed apart in the source
[35] = test system: TMD8; details: Homo sapiens, dose 0.2 µM, time 72.0 hrs; remark: listed apart in the source
[36] = test system: TMD8; details: Homo sapiens, dose 20.0 µM, time 72.0 hrs; remark: listed apart in the source
[37] = test system: TMD8; details: Homo sapiens, dose 6.325 µM, time 72.0 hrs; remark: listed apart in the source
[38] = test system: TMD8; details: Homo sapiens, dose 2.0 µM, time 72.0 hrs; remark: listed apart in the source
[39] = test system: TMD8; details: Homo sapiens, dose 0.632 µM, time 72.0 hrs; remark: listed apart in the source
[40] = test system: TMD8; details: Homo sapiens, dose 0.2 µM, time 72.0 hrs; remark: listed apart in the source
[41] = test system: TMD8; details: Homo sapiens, dose 20.0 µM, time 72.0 hrs; remark: listed apart in the source
[42] = test system: TMD8; details: Homo sapiens, dose 6.325 µM, time 72.0 hrs; remark: listed apart in the source
[43] = test system: TMD8; details: Homo sapiens, dose 2.0 µM, time 72.0 hrs; remark: listed apart in the source
[44] = test system: TMD8; details: Homo sapiens, dose 0.632 µM, time 72.0 hrs; remark: listed apart in the source
[45] = test system: TMD8; details: Homo sapiens, dose 0.2 µM, time 72.0 hrs; remark: listed apart in the source

For `C=CC(=O)Nc1cccc(C(=O)Nc2ccc(NC(=O)c3cccc(-c4ccn[nH]4)n3)cc2)c1`, the CI [1] was 0.761, the CI [2] was 0.488 and the CI [3] was 0.605. The CI [4] was 0.573, the CI [5] was 0.561 and the CI [6] was 0.663. For the same molecule, the CI [7] was 0.424, the CI [8] was 0.572 and the CI [9] was 0.557. It also gave a CI [10] of 0.375, a CI [11] of 0.752 and a CI [12] of 0.454. It also gave a CI [13] of 0.734, a CI [14] of 0.622 and a CI [15] of 0.397. It also gave a CI [16] of 0.958, a CI [17] of 0.556 and a CI [18] of 1.05. For the same molecule, the CI [19] was 0.743, the CI [20] was 0.428 and the CI [21] was 1.04. For the same molecule, the CI [22] was 0.577, the CI [23] was 1.1 and the CI [24] was 0.982. For the same molecule, the CI [25] was 0.32, the CI [26] was 0.193 and the CI [27] was 0.126. It also gave a CI [28] of 0.375, a CI [29] of 0.914 and a CI [30] of 1.11. For the same molecule, the CI [31] was 0.035, the CI [32] was 0.022 and the CI [33] was 0.115. For the same molecule, the CI [34] was 0.321, the CI [35] was 0.387 and the CI [36] was 0.025. For the same molecule, the CI [37] was 0.014, the CI [38] was 0.082 and the CI [39] was 0.179. It also gave a CI [40] of 0.232, a CI [41] of 0.066 and a CI [42] of 0.08. It also gave a CI [43] of 0.343, a CI [44] of 0.485 and a CI [45] of 0.649.
